This note sets out measurements from PubChem BioAssay AID588475 (Sanford-Burnham Center for Chemical Genomics, 2011).

Only a part is listed here, and it is no random draw. Calls of active or inactive are those of the source.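 Rule for the calls: active = inhibition of the ligand-induced calcium signal above about 50% at the single tested concentration (limit read from the data); inactive = the rest.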

A word on the inhibition: it is the change of the read-out against control, counted positive when it falls.

This assay in a line: blockers of CRF-evoked CRF-R2/CRF-BP calcium response – cell-based, HEK293, calcium dye fluorescence, uHTS, primary screen (AID 588475). Particulars: CRF-induced calcium fluorescence, at 11.8 µM, hits give high values.
Consider `COc1cc(C(=O)NCC2(N3CCOCC3)CCCCC2)cc(Cl)c1OC(C)C`, for which the inhibition is inactive: -52.4%. For `O=[As](O)(O)c1cccnc1`, the inhibition is inactive: -7.31%.

For the molecule `O=C(OC1CN2CCC1CC2)c1ccc(Cl)cc1` (stereo not drawn), the inhibition is inactive: -9.01%. The figure for `CCOP(=O)(Nc1cccc2ccccc12)OCC` is inactive: -24.1%; for `COc1cc(C2NCCC3(OCCO3)C2(C)C)cc(OC)c1OC` (stereo not drawn) it is inactive: -5.09%.

For `CCCOP(=S)(Nc1nc(N)cc(=O)[nH]1)OCCC`, the inhibition is inactive: -1.37%. Next, `Nc1cccc2c([As](=O)(O)O)cccc12`: inactive: -36.2%. Next, `Cc1ccc(NCCc2c([N+](=O)[O-])cc([N+](=O)[O-])cc2[N+](=O)[O-])cc1`: inactive: -17.4%; `CC(C)(C)C(=O)NC(Sc1ncccn1)C(Cl)(Cl)Cl` (stereo not drawn): inactive: -5.68%. As to `O=P1(N(CCCl)CCCl)NCCC(C(F)(F)F)O1` (stereo not drawn), the inhibition was inactive: 25.2%. The figure for `Clc1n[nH]nc1-c1nn[nH][15n]1` is inactive: 2.66%. As for `CN(CCCl)Cc1cc(Cl)c(NC2=NCCN2)c(Cl)c1`, the inhibition was inactive: -13.6%.

In the case of `CCOP(=O)(Nc1ccc(C)cn1)OCC`, the inhibition is inactive: -3.03%. Next, `CCOP(=O)(NC(=NC(C)c1ccccc1)NC(C)c1ccccc1)OCC` (stereo not drawn): inactive: 14.6%; `O=P1(Nc2ccccn2)COc2ccccc2OC1`: inactive: 5.55%; `CCC1=CC2Cc3nc4ccc(Cl)cc4c(N)c3C(C1)C2` (stereo not drawn): inactive: 3.69%.

For the molecule `CC1(CBr)Cn2c(nc3ccccc3c2=O)S1` (stereo not drawn), the inhibition is inactive: 10.6%.

As for `CC(C)/C=N\N=C(\N)N[N+](=O)[O-]`, the inhibition is inactive: 5.49%. Next, `CN(C(=O)Cc1ccc(Cl)c(Cl)c1)[C@@H]1CCCC[C@H]1N1CCCC1`: inactive: -0.62%; `COc1ccccc1CNC(=O)COC(=O)C(O)(c1ccccc1)c1ccccc1`: inactive: 2.78%.

With `CCCC1OP(=O)(Nc2ccccc2)OCC1CC` (stereo not drawn), the inhibition was inactive: 5.62%. As for `O=C(/C=C/c1ccccc1)OC1CN2CCC1CC2` (stereo not drawn), the inhibition was inactive: 2.91%. The figure for `CN(C)C1(CNC(=O)c2ccc(S(C)(=O)=O)cc2)CCCCC1` is inactive: 19.1%; for `CC1CCC(C(C)C)C(OP(=O)(Nc2ccccn2)c2ccccc2)C1` (stereo not drawn) it is inactive: -30.8%; for `Cc1ccc(C(=O)OC2CN3CCC2CC3)cc1` (stereo not drawn) it is inactive: -3.09%. Next, `Cc1nn(-c2ccccc2)c2c1P(=O)(N1CCOCC1)N(C)C(c1ccccc1)=N2` (stereo not drawn): inactive: 8.58%; `O=P1(Nc2ccc(Br)cn2)COc2ccccc2OC1`: inactive: -20.8%; `NS(=O)(=O)c1cccc(NC(=O)COC(=O)C(O)(c2ccccc2)c2ccccc2)c1`: inactive: 0.05%. The figure for `O=[As](O)(c1cccs1)c1cccs1` is inactive: -0.02%. Consider `Cc1ccc(OCC(=O)OC2CN3CCC2CC3)cc1` (stereo not drawn), for which the inhibition was inactive: 6.33%. Next, `Nc1cccc([As](=O)(O)c2ccccc2)c1`: inactive: 14.6%. For `O=P1(Nc2ncccn2)COc2ccccc2OC1`, the inhibition was inactive: 15%.

Consider `Cc1cc(SC(NC(=O)c2ccccc2)C(Cl)(Cl)Cl)nc(C(C)C)n1` (stereo not drawn), for which the inhibition is inactive: 14.1%. The figure for `CCCCOc1ccc(C(=O)NCC2(N3CCCCC3)CCCCC2)cc1OC` is inactive: 30.3%; for `COP(=O)(OC)N1CC1c1ccccc1` (stereo not drawn) it is inactive: 31%; for `CC1CCNP(=O)(N(CCCl)CCCl)O1` (stereo not drawn) it is inactive: 3.14%. With `CCOC(=O)Nc1ccc([As](=O)(O)O)c(O)c1`, the inhibition was inactive: -5.85%. The figure for `O=C(O)C(O)c1ccc(N(CCCl)CCCl)cc1` (stereo not drawn) is inactive: 18%. The figure for `O=[N+]([O-])c1ccc(Nc2ccc(Oc3ccc([N+](=O)[O-])cc3[N+](=O)[O-])cc2)c([N+](=O)[O-])c1` is inactive: 14.2%; for `O=P(Nc1ccccn1)(c1cccc2ccccc12)c1cccc2ccccc12` it is inactive: -69.4%. The figure for `Cc1cc(SC(NC=O)C(Cl)(Cl)Cl)ncn1` (stereo not drawn) is inactive: -7.94%; for `CCOC(=O)Nc1cccc([As](=O)(O)O)c1` it is inactive: -6.71%; for `O=C(Nc1ccncc1[N+](=O)[O-])c1ccc([N+](=O)[O-])cc1[N+](=O)[O-]` it is inactive: 6.62%. With `O=C(COc1ccccc1)OC1CN2CCC1CC2` (stereo not drawn), the inhibition was inactive: 0.73%. Next, `O=C(O)C(=O)c1ccc(N(CCCl)CCCl)cc1`: inactive: 3.45%.

In the case of `COP1(=S)c2c(C)nn(CCC#N)c2N=C(c2ccc(F)cc2)N1C` (stereo not drawn), the inhibition was inactive: 12.2%. Consider `CCC(C)N(CC(C)C)C(=S)SC(NC(C)=O)C(Cl)(Cl)Cl` (stereo not drawn), for which the inhibition is inactive: 7.18%.

For the molecule `CCOC(=O)c1ccc(NC(=O)C(C)(CCl)SC)cc1` (stereo not drawn), the inhibition is inactive: 0.72%.

Take `CSc1ccc(Nc2c([N+](=O)[O-])cc([N+](=O)[O-])cc2[N+](=O)[O-])cc1`: the inhibition was inactive: 11.9%. Next, `O=C(OC1CN2CCC1CC2)c1cccc([N+](=O)[O-])c1` (stereo not drawn): inactive: 1.1%. With `COc1cc(I)ccc1[As](=O)(O)O`, the inhibition is inactive: -1.89%. The figure for `COc1ccc2nc(NP(=O)(c3ccccc3)c3ccccc3)sc2c1` is inactive: 0.19%.

Take `O=P1(N(CCCl)CCCl)Nc2ccccc2N1`: the inhibition is inactive: -21.4%. For `O=P1(N(CCCl)CCCl)OCCCN1CCCl` (stereo not drawn), the inhibition is inactive: -4.53%. Turning to `Cc1cc(=O)[nH]c(N[N+](=O)[O-])n1`, the inhibition is inactive: 4.6%. Next, `O=C(OC1CN2CCC1CC2)C12CC3CC(CC(C3)C1)C2` (stereo not drawn): inactive: -11.9%. The figure for `Cc1c2c(nc3ccccc13)SC(C(Cl)Cl)C2` (stereo not drawn) is inactive: -10.3%.

Take `COc1ccc(N/C(=N/P(=O)(N2CCOCC2)N2CCOCC2)N2CCOCC2)cc1`: the inhibition was inactive: -5.85%. The figure for `O=[N+]([O-])c1cc(Oc2ccc([N+](=O)[O-])cc2C(F)(F)F)cc([N+](=O)[O-])c1` is inactive: -30.2%. Next, `Cc1ccc2nc3c(c(C)c2c1)CC(C(Cl)Cl)S3` (stereo not drawn): inactive: -44.6%; `CC(Cc1ccc(O)cc1)NCC(O)c1cc(O)cc(O)c1` (stereo not drawn): inactive: -0.64%; `Cc1ccc(OP(=O)(Nc2ccc([N+](=O)[O-])cn2)Oc2ccc(C)cc2)cc1`: inactive: -7.61%. With `COc1cc(C(=O)NCC2(N3CCOCC3)CCCCC2)ccc1OCC(C)C`, the inhibition was inactive: 1.48%.

Take `O=[N+]([O-])c1ccc(-c2cc([N+](=O)[O-])c(O)c([N+](=O)[O-])c2)cc1`: the inhibition is inactive: 30.6%.

Turning to `C[As](=O)(O)c1cccc(C(=O)O)c1`, the inhibition was inactive: 6.45%.

As for `O=[As](O)(c1ccc(O)cc1)c1ccccc1O`, the inhibition is inactive: 13.4%. The figure for `O=[N+]([O-])c1cc([N+](=O)[O-])c(-c2ccn[nH]2)s1` is inactive: 6.5%; for `O=C(OC1CN2CCC1CC2)c1cccc2[nH]cnc12` (stereo not drawn) it is inactive: -3.26%; for `CCN(CC)C(=S)SC(NC=O)C(Cl)(Cl)Cl` (stereo not drawn) it is inactive: 0.5%. On to `CC(C)NC(=O)NP(=O)(Oc1ccccc1)Oc1ccccc1`, for which the inhibition was inactive: 38.1%. The figure for `CC(C)c1ccc(OP(=O)(Nc2ccccn2)Oc2ccccc2F)cc1` (stereo not drawn) is inactive: 48.7%; for `COC(=O)C1(C)COP(=O)(N2CCCCCC2)OC1` (stereo not drawn) it is inactive: 15.3%; for `ClCCSc1nnc(-c2cccnc2)o1` it is inactive: -1%.
